These results are taken from patent publication US20260241028A1, “METAL-BASED ANTIBODY-DRUG CONJUGATES AND METHODS OF MAKING AND USING THEREOF” (Laboratory for Synthetic Chemistry and Chemical Biology …, priority 2024, published 2026).

In test [1] the test system is HT29. Briefly: In vitro anti-proliferative activity (NBB assay), HT29. The format is cell-based. As for the experimental part:
(§1) Cells (4×10^3 cells/well) were seeded in a microtiter plate (96 wells) and incubated overnight before the treatment. […] After the media was removed, the cells were fixed with formaldehyde (3%; 50 μL) in PBS and stained with NBB reagent (0.05%, 0.1 M sodium acetate, 9% acetic acid; 50 μL) for overnight. The stained cells in each well were washed thrice gently with deionized water and solubilized in sodium hydroxide solution (50 mM; 100 μL). The cell viability was determined by measuring the absorbance of 620 nm in each well by microplate reader. The experiments were repeated in triplicate.
(§2) The methods are described as above (see Example 1), except using Cetuximab and the corresponding ADC-Au.

The subject of test [2] is HCT116. Briefly: In vitro anti-proliferative activity (NBB assay), HCT116. Type of test: cell-based. On the procedure: as §1, §2
Test [3] deals with HT29 tumor. Kind of test: In vivo antitumor activity, HT29 tumor-bearing mice. As to conditions: Cetuximab 15 mg/kg. As for the experimental part: (§3) All animal experiments are conducted under the guidelines approved by the Committee on the Use of Live Animals in Teaching and Research of the University of Hong Kong. Female BALB/cAnN-nu (nude) mice (5-8 weeks old) are housed in the Laboratory Animal Unit, The University of Hong Kong. The mice are freely access to food and water. HT29 colorectal cancer cells (5× 10^6) in PBS (100 μL) are injected into the right flanks of each mouse subcutaneously. […] The mice are treated with intravenous administration of a total of four doses on day 0, 3, 6 and 9. The tumor size and body weight are monitored during the treatment. After 12 days, the mice are sacrificed.

Test [4] relates to pAkt (Ser473). Kind of test: Western blot of pAkt and Akt in NCI-N87 cells. Type of test: cell-based. Particulars: treatment for 24 hours. Background: In western blotting, separated proteins are transferred to a membrane and probed.
For test [5], the system named is NCI-N87. Kind of test: In vitro anti-proliferative activity (NBB assay), NCI-N87. Type of test: cell-based. As to conditions: HER2-overexpressed. As for the experimental part:
as §1

The test system of test [6] is HER2-negative MDB-MB-231 cells. Kind of test: Flow cytometry cellular binding and uptake, HER2-negative cells. Type of test: cell-based. As for the experimental part:
Cells (2×10^5 cells/tube) were suspended in FACS staining buffer (2% FBS in PBS) into a 1.5 mL eppendorf tube. They were incubated with Sacituzumab, ADC-Au or IgG control respectively in staining buffer (100 μL) at 4° C. After 1 h, the cell suspensions were centrifuged at 1500 rpm for 3 min at 4° C. and washed with staining buffer (1 mL) twice to discard unbound antibodies. The cells were then incubated with Alexa Fluor 594 goat anti-human secondary antibody at 4° C. for 1 h and then subject to centrifugation. The cells were washed twice again and were resuspended in staining buffer. The mean fluorescence intensities (MFI) were measured using Beckman Cytoflex S Flow Cytometer.
For orientation: In flow cytometry, cells or beads pass a laser one at a time.

Test [7] has as its system NCI-N87 gastric cancer xenograft. Kind of test: In vivo anti-tumor effect, NCI-N87 gastric cancer xenograft. Details: species or system mice. As to conditions: Trastuzumab 10 mg/kg. As for the experimental part: as §3, with “NCI-N87 gastric” for “HT29 colorectal”, “(4×10^6)” for “(5× 10^6)”, “1, 5, 8” for “0, 3, 6”, “12.” for “9.”, “18” for “12”
For test [8], the system named is MDA-MB-231. Kind of test: In vitro anti-proliferative activity (NBB assay), MDA-MB-231. Type of test: cell-based. As for the experimental part:
as §1

[9] abbreviates: Table 3, Example 2 (Cetuximab ADC), 72 h.

The term IC50 denotes the concentration at which inhibition is half-maximal. “Cetuximab: EGFR-targeted monoclonal antibody (MCE)”: the IC50 in test [1] (setting [9]) and in test [2] (setting [9]) was > 4 µM in each case. In addition, the “cell growth inhibition HT29” value in test [1] (even up to 4 μM) was “not obvious”. Besides, the “cell growth inhibition HCT116” value in test [2] (even up to 4 μM) is “not obvious”. In addition, the antitumor effect entry in test [3] is given as “moderate antitumor effect”.

As for “Trastuzumab: HER2-targeted monoclonal antibody (MCE)”, in test [4], the “intracellular pAkt (Ser473)” value is “downregulation” and the “total Akt levels” value is “not affected”. In addition, in test [5], the “cell growth inhibition NCI-N87” value is reported as “showed cell growth inhibition”. Further, the “uptake to MDB-MB-231 cells” value in test [6] is listed as “but not”. The tumor growth result in test [7] is reported as “obvious tumor growth inhibition”. In addition, in test [8] (HER2-negative), the “cell growth inhibition MDA-MB-231” value was “but not”. Further, the IC50 in test [8] (Table 4, Example 3 (Trastuzumab ADC), 72 h) was > 4 µM.
